By UniProt entry, the sequences of proteins in these tests, tags left out.
UniProt P37231, whole entry: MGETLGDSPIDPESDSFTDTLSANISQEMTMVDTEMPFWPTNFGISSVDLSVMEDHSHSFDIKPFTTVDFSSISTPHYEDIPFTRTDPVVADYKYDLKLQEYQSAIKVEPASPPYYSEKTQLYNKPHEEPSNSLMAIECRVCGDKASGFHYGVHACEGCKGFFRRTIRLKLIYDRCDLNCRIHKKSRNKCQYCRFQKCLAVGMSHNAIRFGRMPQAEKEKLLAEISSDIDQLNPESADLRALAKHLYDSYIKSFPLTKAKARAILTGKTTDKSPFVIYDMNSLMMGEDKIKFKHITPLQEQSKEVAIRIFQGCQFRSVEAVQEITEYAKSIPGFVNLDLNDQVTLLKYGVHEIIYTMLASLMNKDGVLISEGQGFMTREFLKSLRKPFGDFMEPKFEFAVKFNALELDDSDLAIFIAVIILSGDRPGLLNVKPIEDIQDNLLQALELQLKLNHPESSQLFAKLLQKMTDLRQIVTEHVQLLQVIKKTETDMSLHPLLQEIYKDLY

According to patent US7893077B2, “Bisaryl-sulfonamides” (Amgen Inc., priority 2004, dated 2011):

Target: PPARγ (Homo sapiens, UniProt P37231)
Experiment: PPARγ ligand binding assay utilizing [3H]-BRL 49653 as the radioligand (filtration)
Conditions: read-out: PPARγ Binding IC50 Filtration; concentration required to reduce by 50% the specific binding of [3H]-BRL 49653
From the text: The compounds of the present invention can be evaluated for modulation of the PPARγ receptor using assays such as those described in Jiang, et al., Nature 391:82-86 (1998), Ricote, et al., Nature 391:79-82 (1998) and Lehmann, et al., J. Biol. Chem. 270(12): 12953-12956 (1995). Alternatively, the compounds can be evaluated for their ability to displace radiolabeled BRL 49653 from a PPARγ-GST fusion protein as follows:
PPARγ-GST fusion protein (prepared according to standard procedures), [^3H]-BRL 49653 having 50 Ci/mmol specific activity, Polyfiltronics Unifilter 350 filtration plate and glutathione-Sepharose® beads (from Pharmacia: washed twice with 10× binding buffer in which BSA and DTI can be left out).
Binding buffer (10 mM Tris-HCl, pH 8.0, 50 mM KCl, 10 mM DTT, 0.02% BSA and 0.0 1% NP-40) is added in 80-μL amounts to the wells of the filtration plate. The test compound is then added in 10 μL of DMSO. The PPARγ-GST fusion protein and radiolabeled BRL compound are premixed in binding buffer containing 10 mM DTT and added in 10-μL amounts to the wells of the plate to provide final concentrations of 1 µg/well of PPARγ-GST fusion protein and 10 nM [^3H]-BRL 49653 compound. The plate is incubated for 15 min. Glutathione-agarose bead is added in 50 μL of binding buffer, and the plate is vigorously shaken for one hour. The plate is washed four times with 200 μL/well of binding buffer (without BSA and DTT). The bottom of the plate is sealed and 200 μL/well of scintillation cocktail is added. The top of the plate is then sealed and the radioactivity is determined.
IC50 values are defined as the concentration of test compounds required to reduce by 50% the specific binding of [^3H]-BRL 49653 and are represented by (+)<30 μM; (++)<10 μM; (+++)<1 μM.

Compound	IC50 [nM]
CC(=O)c1cc(NS(=O)(=O)c2ccc(Cl)cc2Cl)ccc1Oc1ccc(S(=O)(=O)N2CCOCC2)cc1	< 1000
CCc1cc(S(=O)(=O)N2CCOCC2)ccc1Oc1c(Cl)cc(NS(=O)(=O)c2ccc(C(F)(F)F)cc2Cl)cc1Cl	< 1000
O=S(=O)(Nc1cc(Cl)c(Oc2ccc(S(=O)(=O)N3CCCCCC3)cc2)c(Cl)c1)c1ccc(C(F)(F)F)cc1Cl	< 1000
CC(=O)c1cc(NS(=O)(=O)c2ccc(Cl)cc2Cl)ccc1Oc1ccc(S(=O)(=O)N2CCCCC2)cc1	< 1000
CCCC(=O)c1cc(NS(=O)(=O)c2ccc(Cl)cc2Cl)ccc1Oc1ccc(S(=O)(=O)C2CCCC2)cc1	< 1000
O=S(=O)(Nc1cc(Cl)c(Oc2ccc(S(=O)(=O)N3CCCCC3)cc2)c(Cl)c1)c1ccc(Cl)cc1Cl	< 1000
O=S(=O)(Nc1cc(Cl)c(Sc2ccc(S(=O)(=O)N3CCCCC3)cc2)c(Cl)c1)c1ccc(C(F)(F)F)cc1Cl	< 1000
CS(=O)(=O)c1ccc(Sc2c(Cl)cc(NS(=O)(=O)c3ccc(C(F)(F)F)cc3Cl)cc2Cl)cc1	< 1000
CC(C)CNC(=O)c1cc(NS(=O)(=O)c2ccc(Cl)cc2Cl)ccc1Oc1ccc(S(=O)(=O)N2CCCCC2)cc1	< 1000
CCN(CC)S(=O)(=O)c1ccc(Oc2ccc(NS(=O)(=O)c3cc(F)cc(Cl)c3C)cc2C)cc1	< 10000
Cc1cc(S(=O)(=O)N2CCCC2)ccc1Oc1c(Cl)cc(NS(=O)(=O)c2ccc(C(F)(F)F)cc2Cl)cc1Cl	< 1000
CCNC(=O)c1cc(NS(=O)(=O)c2ccc(Cl)cc2Cl)ccc1Oc1ccc(S(=O)(=O)N2CCCC2)c(C)c1	< 1000
CCN(CC)S(=O)(=O)c1ccc(Oc2c(Cl)cc(NS(=O)(=O)c3cc(C)c(Cl)cc3C)cc2Cl)cc1	< 1000
O=S(=O)(Nc1cc(Cl)c([S+]([O-])c2ccc(S(=O)(=O)N3CCOCC3)cc2)c(Cl)c1)c1ccc(C(F)(F)F)cc1Cl (stereo not shown)	< 1000
CCN(CC)S(=O)(=O)c1ccc(Oc2c(Cl)cc(NS(=O)(=O)c3cc(C)c(Cl)cc3Cl)cc2Cl)cc1	< 1000
CC(=O)c1cc(NS(=O)(=O)c2ccc(Cl)cc2Cl)cc(Cl)c1Oc1ccc(S(=O)(=O)N2CCCCC2)cc1	< 1000
CCN(CC)S(=O)(=O)c1ccc(Oc2ccc(NS(=O)(=O)c3ccc(C(F)(F)F)cc3Cl)cc2CO)cc1	< 10000
Cc1cc(Oc2ccc(NS(=O)(=O)c3ccc(C(F)(F)F)cc3Cl)cc2C(=O)N(C)C(C)C)ccc1S(=O)(=O)N1CCCC1	< 10000
CCCC(=O)c1cc(NS(=O)(=O)c2ccc(Cl)cc2Cl)ccc1Oc1ccc(S(=O)(=O)N2CCCC2)cc1	< 1000
Cc1cc(S(=O)(=O)Nc2ccc(Oc3ccc(S(=O)(=O)N4CCOCC4)cc3)c(C(=O)OC(C)C)c2)c(Cl)cc1Cl	< 1000
Cc1cc(Oc2ccc(NS(=O)(=O)c3ccc(C(F)(F)F)cc3Cl)cc2C(=O)NC(C)C)ccc1S(=O)(=O)N1CCCC1	< 1000
CC(=O)c1cc(NS(=O)(=O)c2ccc(F)c(C(F)(F)F)c2)cc(Cl)c1Oc1ccc(S(=O)(=O)N2CCOCC2)cc1	< 1000
CC(=O)c1cc(NS(=O)(=O)c2cc(C)c(Cl)cc2Cl)cc(Cl)c1Oc1ccc(S(=O)(=O)N2CCCCC2)c(Cl)c1	< 1000
CC(C)OCc1cc(NS(=O)(=O)c2ccc(C(F)(F)F)cc2Cl)ccc1Oc1ccc(S(=O)(=O)N2CCCCC2)cc1	< 1000
O=S(=O)(Nc1cc(Cl)c(Oc2ccc(S(=O)(=O)N3CCCCC3)cc2)c(Cl)c1)c1ccc(C(F)(F)F)cc1Cl	< 1000
CC(=O)c1cc(NS(=O)(=O)c2ccc(F)cc2F)cc(Cl)c1Oc1ccc(S(=O)(=O)N2CCOCC2)cc1	< 10000

Compound	IC50 [nM]
Cc1cc(S(=O)(=O)Nc2ccc(Oc3ccc(S(=O)(=O)N4CCCCC4)cc3)c(C(=O)NCC(C)C)c2)c(Cl)cc1Cl	< 1000
CC(=O)c1ccc(S(=O)(=O)Nc2cc(Cl)c(Oc3ccc(S(=O)(=O)N4CCOCC4)cc3)c(C(C)=O)c2)cc1	< 1000
O=S(=O)(Nc1cc(Cl)c(Sc2ccc(S(=O)(=O)N3CCCC3)cc2)c(Cl)c1)c1ccc(C(F)(F)F)cc1Cl	< 1000
O=C(O)CS(=O)(=O)c1ccc(Sc2c(Cl)cc(NS(=O)(=O)c3ccc(C(F)(F)F)cc3Cl)cc2Cl)cc1	< 1000
O=C(c1cc(NS(=O)(=O)c2ccc(Cl)cc2Cl)ccc1Sc1ccc(S(=O)(=O)N2CCOCC2)cn1)C1CC1	< 1000
Cc1cc(Oc2ccc(NS(=O)(=O)c3ccc(Cl)cc3Cl)cc2C(=O)C2CC2)ccc1S(=O)(=O)N1CCCCC1	< 1000
CC(=O)c1cc(NS(=O)(=O)c2ccc(C(F)(F)F)cc2Cl)ccc1Oc1ccc(S(=O)(=O)N2CCCC2)c(C)c1	< 1000
Cc1cc(S(=O)(=O)Nc2ccc(Sc3ccc(S(=O)(=O)N4CCCCC4)cc3)c(C(=O)OC(C)C)c2)c(Cl)cc1Cl	< 1000
CCCC(=O)c1nc(NS(=O)(=O)c2ccc(Cl)cc2Cl)ccc1Sc1ccc(S(=O)(=O)N2CCCCC2)cc1 [Compound 73, N-{6-Butyryl-5-[4-(piperidine-1-sulfonyl)-phenylsulfanyl]-pyridin-2-yl}-2,4-dichloro-benzenesulfonamide]	< 1000
CC(=O)c1cc(NS(=O)(=O)c2ccc(C(F)(F)F)cc2)cc(Cl)c1Oc1ccc(S(=O)(=O)N2CCOCC2)cc1	< 1000
CC(=O)c1cc(NS(=O)(=O)c2ccc(Cl)cc2Cl)cc(Cl)c1Oc1ccc(S(=O)(=O)N2CCCC2)c(C)c1	< 1000
CCOC(=O)c1cc(NS(=O)(=O)c2ccc(Cl)cc2Cl)ccc1Oc1ccc(S(=O)(=O)N2CCCCC2)c(C)c1	< 1000
CC1CCCN(S(=O)(=O)c2ccc(Oc3c(Cl)cc(NS(=O)(=O)c4ccc(C(F)(F)F)cc4Cl)cc3Cl)cc2)C1 (stereo not shown)	< 1000
C[C@@H]1CN(S(=O)(=O)c2ccc(Oc3c(Cl)cc(NS(=O)(=O)c4ccc(C(F)(F)F)cc4Cl)cc3Cl)cc2)C[C@H](C)O1 (relative stereo)	< 1000
CC(=O)c1cc(NS(=O)(=O)c2ccc(Cl)cc2Cl)cc(Cl)c1Oc1ccc(S(=O)(=O)N2CCCCC2)c(C)c1	< 1000
N#CCC(=O)c1cc(NS(=O)(=O)c2ccc(Cl)cc2Cl)ccc1Oc1ccc(S(=O)(=O)N2CCCCC2)cc1	< 10000
O=S(=O)(Nc1cc(Cl)c(Oc2ccc(S(=O)(=O)N3CC[C@@H](O)C3)cc2)c(Cl)c1)c1ccc(C(F)(F)F)cc1Cl	< 1000
CC(C)N(C)C(=O)c1cc(NS(=O)(=O)c2ccc(C(F)(F)F)cc2Cl)ccc1Oc1ccc(S(=O)(=O)N2CCCCC2)cc1	< 1000
CC(=O)Nc1ccc(S(=O)(=O)Nc2cc(Cl)c(Oc3ccc(S(=O)(=O)N4CCOCC4)cc3)c(C(C)=O)c2)cc1Cl	< 10000
CCC(C)NC(=O)c1cc(NS(=O)(=O)c2ccc(Cl)cc2Cl)ccc1Oc1ccc(S(=O)(=O)N2CCCCC2)c(C)c1 (stereo not shown)	< 1000
CC(=O)c1cc(NS(=O)(=O)c2ccc(C(F)(F)F)cc2Cl)cc(Cl)c1Oc1ccc(S(=O)(=O)N2CCCCC2)c(C)c1	< 1000
Cc1cc(NS(=O)(=O)c2ccc(Cl)cc2Cl)ccc1Oc1ccc(S(=O)(=O)N2CCOCC2)cc1	< 1000
COc1cc(C)ccc1S(=O)(=O)Nc1cc(Cl)c(Oc2ccc(S(=O)(=O)N3CCOCC3)cc2)c(C(C)=O)c1	< 1000
CCN(CCNC)S(=O)(=O)c1ccc(Sc2c(Cl)cc(NS(=O)(=O)c3ccc(C(F)(F)F)cc3Cl)cc2Cl)cc1	< 1000
Cc1cc(S(=O)(=O)Nc2ccc(Oc3ccc(S(=O)(=O)N4CCCCC4)cc3)c(C(=O)CC(C)C)c2)c(Cl)cc1Cl	< 1000
CC(=O)c1cc(NS(=O)(=O)c2c(C)cc(Cl)cc2Cl)cc(Cl)c1Oc1ccc(S(=O)(=O)N2CCOCC2)cc1	< 1000
